Reference: PubChem BioAssay AID588765 (NMMLSC, 2011)
Only a part is listed here, and it is no random draw. Active and inactive are the calls of the source.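 How the source made its calls: active means percent response below a set limit in fluorescence channel 1 and below 50% in channel 8; inactive means the rest.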

Assay: compound fluorescence in dual-transfected Am2.2 cells, confirmation, artefact control for beta2AR agonist internalization project, cell-based, FAP fluorogen, flow cytometry, cherry pick 1 (AID 588765);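 further: low percent response here flags compound autofluorescence meaning a false positive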
Settings: fluorescence counterscreen, at 10 µM, active compounds read low
For `CN(C)C(=O)c1cc([N+](=O)[O-])cc2c1-c1c(cc([N+](=O)[O-])cc1[N+](=O)[O-])C2=O`, the percent response FL1 was inactive: 95.8%.
